Results: US5807742A, “Neurokinin receptor cell lines” (Merrell Pharmaceuticals Inc., priority 1996, dated 1998)

Sequences of proteins named here, by UniProt entry; tags and fusion partners are left off.
UniProt P05363, whole entry: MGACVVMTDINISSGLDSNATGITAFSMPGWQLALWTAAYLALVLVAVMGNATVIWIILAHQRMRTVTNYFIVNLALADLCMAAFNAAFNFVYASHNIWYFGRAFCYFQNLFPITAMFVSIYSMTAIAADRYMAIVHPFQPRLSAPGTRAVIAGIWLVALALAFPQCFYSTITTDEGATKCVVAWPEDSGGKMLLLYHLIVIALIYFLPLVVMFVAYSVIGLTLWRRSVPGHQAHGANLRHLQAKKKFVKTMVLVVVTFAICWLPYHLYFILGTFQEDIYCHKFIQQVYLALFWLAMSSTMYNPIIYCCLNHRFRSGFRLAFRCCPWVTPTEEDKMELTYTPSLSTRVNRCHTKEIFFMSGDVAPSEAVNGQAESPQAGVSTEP
UniProt P51144, whole entry: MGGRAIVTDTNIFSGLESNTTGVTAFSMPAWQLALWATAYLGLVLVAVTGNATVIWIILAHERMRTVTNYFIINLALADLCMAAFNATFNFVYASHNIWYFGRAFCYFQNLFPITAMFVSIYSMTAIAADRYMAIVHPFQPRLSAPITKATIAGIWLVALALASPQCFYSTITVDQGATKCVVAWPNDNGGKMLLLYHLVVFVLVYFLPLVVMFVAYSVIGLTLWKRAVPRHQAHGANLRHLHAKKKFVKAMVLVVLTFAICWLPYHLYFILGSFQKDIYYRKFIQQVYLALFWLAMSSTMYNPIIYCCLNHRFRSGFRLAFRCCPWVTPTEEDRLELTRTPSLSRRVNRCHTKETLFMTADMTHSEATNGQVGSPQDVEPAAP

What was measured:
neurokinin A receptor [1] = target: T1, neurokinin A receptor (Bos taurus, UniProt P05363); test: [125I]NKA receptor binding (saturation/Scatchard and competition) in B82 cells transfected with pSKR56S cDNA (SKLKB82#n); design: species or system bovine; conditions: SKLKB82#3 cells; FIG. 4
T1 construct: expressed in transfected cells
Experimental: (§1) The homogenate is centrifuged at 48,000×g for 10 min at 4° C.

[2] = target: T2, NKA receptor (hamster urinary bladder) (Mesocricetus auratus, UniProt P51144); test: [125I]NKA receptor binding in hamster urinary bladder membranes (standard control); conditions: FIG. 4
T2 construct: the hamster urinary bladder membranes were run as a standard control; from tissue; host or cells: hamster urinary bladder membranes
Experimental: as §1

neurokinin A receptor [3] = target: T1, neurokinin A receptor; test: [3H]inositol-1-phosphate (IP1) accumulation in SKLKB82#3 cells; assay type: cell-based, bovine; conditions: three separate experiments in duplicate, FIG. 5

For substance P, the “potency rank-order, inhibition of [125I]NKA receptor binding (KI)” value (shortened to “potency rank-order, inhibition”) (neurokinin A receptor [1]) was “followed by Nle^10 NKA (4-10), substance P, and senktide”, the “potency rank-order, inhibition” value [2] was “followed by Nle^10 NKA (4-10), substance P, and senktide” and the EC50 (neurokinin A receptor [3]) was 4.8 µM.
With neurokinin A [NKA] the “potency rank-order, inhibition” value [2] was “the most potent inhibitor of binding”.
